Target: GSNOR (Homo sapiens (Human), UniProt P11766)
Assay: GSNOR IC50 (method in incorporated applications)
Assay type: biochemical

Amino acid sequences for entries named in this document (tags omitted). A change or cut given only in a name is not applied to a line headed by its entry.
UniProt P11766: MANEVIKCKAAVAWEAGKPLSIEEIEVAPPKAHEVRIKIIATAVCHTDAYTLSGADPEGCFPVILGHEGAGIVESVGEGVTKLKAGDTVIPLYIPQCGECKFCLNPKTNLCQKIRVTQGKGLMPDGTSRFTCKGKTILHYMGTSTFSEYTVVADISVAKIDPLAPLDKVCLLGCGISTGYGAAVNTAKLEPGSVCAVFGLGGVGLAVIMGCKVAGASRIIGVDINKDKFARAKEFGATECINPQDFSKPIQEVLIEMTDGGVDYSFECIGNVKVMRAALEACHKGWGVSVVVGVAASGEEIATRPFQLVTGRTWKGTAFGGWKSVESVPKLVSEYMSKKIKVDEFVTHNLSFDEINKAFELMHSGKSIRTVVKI

**Q.** `CCOc1cc([C@@H]2NC(=O)NC(c3cccnc3)=C2c2ccsc2)cc([N+](=O)[O-])c1O` [4-(3-ethoxy-4-hydroxy-5-nitrophenyl)-6-(pyridin-3-yl)-5-(thiophen-3-yl)-3,4-dihydropyrimidin-2(1H)-one] was tested. Which IC50 did it give?
**A.** 16 nM

Source: patent US8906933B2, “Dihydropyrimidin-2(1H)-one compounds as neurokinin-3 receptor antagonists” (N30 Pharmaceuticals, Inc., priority 2010, dated 2014)
